These results are taken from patent EP2951180B1, “2,6,7,8 SUBSTITUTED PURINES AS HDM2 INHIBITORS” (Merck Sharp & Dohme Corp., priority 2013, dated 2014).

The chains behind the UniProt entries cited, without tags or fusion partners. Residues count along the entry.
UniProt Q00987, 17-125: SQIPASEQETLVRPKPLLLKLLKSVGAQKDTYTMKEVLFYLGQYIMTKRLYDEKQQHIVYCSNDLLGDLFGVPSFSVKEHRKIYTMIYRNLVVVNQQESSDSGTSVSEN

Experiment [1] addresses T1, HDM2 (Homo sapiens, UniProt Q00987).
T1 construct: Thioredoxin (N); made in house; host or cells: E. coli strain BL21(DE3)Rosetta
Nature of the experiment: HDM2 FRET assay (inhibition of binding of FITC labeled p53-pocket peptide to HDM2).

For experiment [2], the target named is T1, HDM2. Nature of the experiment: FRET assay (HDM2 inhibition; method not described in this part). The experiment is classed as binding.
[3] abbreviates: 0.5 nM HDM2 (residues 17 to 125), 3nM peptide, two hour incubation at room temperature.

For orientation: IC50 means the concentration that inhibits the measured activity by half. Low readings indicate higher potency, high ones lower potency. `Cc1cccc(-c2nc3nc(C(=O)O)nc(OC(C)C4CCC4)c3n2Cc2ccc(C(F)(F)F)cc2)c1` (racemic) [Example 17.4, 6-(1-cyclobutylethoxy)-8-(3-methylphenyl)-7-[4-(trifluoromethyl)benzyl]-7H-purine-2-carboxylic acid] had a half-inhibitory concentration (IC50) on HDM2 [1] (setting [3]) of 67.1 nM.
As to `C[C@@H](Nc1nc(-c2noc(=O)[nH]2)nc2nc(N3CCCC4COCCC43)n(C[C@H]3CC[C@H](C)CC3)c12)C1CCC1` (single isomer, unassigned) [Example 11.143], at HDM2 [1] (Table 11), the IC50 is 12.6 nM.
Still for that read-out and setting: next, `C[C@@H](Nc1nc(-c2noc(=O)[nH]2)nc2nc(N3CCCC4COCCC43)n(C[C@H]3CC[C@H](C)CC3)c12)C1CCC1` (single isomer, unassigned) [Example 11.144]: 5.67 nM.
In turn, `C[C@@H](Nc1nc(-c2noc(=O)[nH]2)nc2nc(N3CCO[C@H](C)[C@@H]3C)n(C[C@H]3CC[C@H](C)CC3)c12)C1CCC1` (single isomer, unassigned) [Example 11.146] showed an IC50 on HDM2 [1] (Table 11) of 20.1 nM.
The same measure, in the same setting: the same measure for `C[C@@H](Nc1nc(-c2noc(=O)[nH]2)nc2nc(N3CCO[C@H](C)[C@@H]3C)n(C[C@H]3CC[C@H](C)CC3)c12)C1CCC1` (single isomer, unassigned) [Example 11.147]: 9.19 nM; for `C[C@@H](Nc1nc(-c2noc(=O)[nH]2)nc2nc(N3CCO[C@H]4CCCC[C@H]43)n(C[C@H]3CC[C@H](C)CC3)c12)C1CCC1` (single isomer, unassigned) [Example 11.159]: 12.1 nM; for `C[C@@H](Nc1nc(-c2noc(=O)[nH]2)nc2nc(N3CCO[C@H]4CCCC[C@H]43)n(C[C@H]3CC[C@H](C)CC3)c12)C1CCC1` (single isomer, unassigned) [Example 11.160]: 3.93 nM.
Regarding `C[C@@H]1COCCN1c1nc2nc(-c3noc(=O)[nH]3)nc(N[C@H](C)C3CCC3)c2n1C[C@H]1CC[C@H](C)C(F)(F)C1` (single isomer, unassigned) [Example 18.31], on HDM2 [1] (Table 18), the half-maximal inhibitory concentration (IC50) is 8.12 nM.
The same measure, in the same setting: the same measure for `C[C@@H]1COCCN1c1nc2nc(-c3noc(=O)[nH]3)nc(N[C@H](C)C3CCC3)c2n1C[C@H]1CC[C@H](C)C(F)(F)C1` (single isomer, unassigned) [Example 18.32]: 11.2 nM.
`COc1ccccc1C(C)(F)c1nc2nc(-c3n[nH]c(=O)o3)nc(-c3cncc(Cl)c3)c2n1C[C@H]1CC[C@H](C)CC1` (single isomer, unassigned) [Example 23.24, 5-{6-(5-chloropyridin-3-yl)-8-[1-fluoro-1-(2-methoxyphenyl)ethyl]-7-[(trans-4-methylcyclohexyl)methyl]-7H-purin-2-yl}-1,3,4-oxadiazol-2(3H)-one] gave an IC50 at HDM2 [1] (Table 23) of 7.81 nM.
Turning to `CC(C)Oc1ccnc(-c2nc3nc(C(=O)O)nc(N[C@H](C)C4CCC4)c3n2Cc2ccc(C(F)(F)F)cc2)c1` [Example 1.59, 6-{[(1R)-1-cyclobutylethyl]amino}-8-[4-(1-methylethoxy)pyridin-2-yl]-7-[4-(trifluoromethyl)benzyl]-7H-purine-2-carboxylic acid], the half-maximal inhibitory concentration (IC50) against HDM2 [2] turned out to be 7.05 nM. That is a single-digit nanomolar value.
At HDM2 [1] (Table 11), `Cc1cc(CN(C)c2nc3nc(-c4noc(=O)[nH]4)nc(N[C@H](C)C4CCC4)c3n2C[C@H]2CC[C@H](C)CC2)on1` [Example 11.77, 3-(6-{[(1R)-1-cyclobutylethyl]amino}-7-[(trans-4-methylcyclohexyl)methyl]-8-{methyl[(3-methylisoxazol-5-yl)methyl]amino}-7H-purin-2-yl)-1,2,4-oxadiazol-5(2H)-one] returned an IC50 of 12.6 nM.
At HDM2 [1] (setting [3]), `Cc1ccc(C)c(-c2nc3nc(C(N)=O)nc(N[C@H](C)C4CCC4)c3n2Cc2ccc(C(F)(F)F)cc2)c1` [Example 12.31, 6-{[(1R)-1-cyclobutylethyl]amino}-8-(2,5-dimethylphenyl)-7-[4-(trifluoromethyl)benzyl]-7H-purine-2-carboxamide] came in with an IC50 of 37.7 nM. This counts as double-digit nanomolar.
Regarding `Cc1nc2nc(-c3noc(=O)[nH]3)nc(N[C@H](C)C3CCC3)c2n1C[C@H]1CC[C@H](C)CC1` [Example 21.10, 3-(6-{[(1R)-1-cyclobutylethyl]amino}-8-methyl-7-[(trans-4-methylcyclohexyl)methyl]-7H-purin-2-yl)-1,2,4-oxadiazol-5(4H)-one], the IC50 on HDM2 [1] (Table 21) was 37.7 nM.
Compound `CC(c1ccccc1F)c1nc2nc(-c3noc(=O)[nH]3)nc(N[C@H](C)C3CCC3)c2n1C[C@H]1CC[C@H](C)CC1` (stereo partly drawn) [Example 21.33, 3-(6-{[(1R)-1-cyclobutylethyl]amino}-8-[1-(2-fluorophenyl)ethyl]-7-[(trans-4-methylcyclohexyl)methyl]-7H-purin-2-yl)-1,2,4-oxadiazol-5(4H)-one] displayed an IC50 at HDM2 [1] (Table 21) of 5.67 nM.
